Patent publication US12030940B2, “Immunotherapeutic tumor treatment method” (Nektar Therapeutics, priority 2017, dated 2024)

Columns and labels:
[1] = system: STAT5 phosphorylation in lymphocytes; experiment: STAT5 phosphorylation in lymphocytes by flow cytometry after administration in mice; assay type: in vivo
Excerpt: Conventional approaches, such as those involving radiolabeling a compound, administering it in vivo, and determining its clearance, may be used to determine whether a compound proposed to be a long-acting IL-2Rβ biased agonist is “long-acting”. For the purposes herein, the long-acting nature of an IL-2Rβ biased agonist is typically determined using flow cytometry to measure STAT5 phosphorylation in lymphocytes at various time points after administration of the agonist to be evaluated in mice. As a reference, the signal is lost by around 24 hours with IL-2, but is sustained for a period greater than that for a long-acting IL-2Rβ-biased agonist.

[2] = system: B16F10 mouse melanoma tumors; experiment: Immune cells in tumor microenvironment by flow cytometry, subcutaneous B16F10 melanoma mice; assay type: in vivo

Row | Substance | duration of STAT5 phosphorylation signal [1] | activated natural killer (NK) cells ([2]; 5 and 7 days after treatment initiation) | total and memory CD8 T cells as percentage of tumor-infiltrating lymphocytes ([2]; relative to vehicle) | CD4 cell percentages of tumor-infiltrating lymphocytes ([2]; relative to vehicle on day 5) | percentage of Tregs (FoxP3+ subset of CD4) in tumor ([2]; relative to vehicle, days 5, 7, 10) | time by which STAT5 phosphorylation signal is lost [1]
1 | (2,7-(bis-methoxyPEG10kD-carboxyamide)(9H-fluorene-9-yl)methyl N-carbamate)4-6interleukin-2 [RSLAIL-2] | sustained over several days | increased | significant (P<0.05) and sustained | diminished | reduced percentage of Tregs at every time point | 
2 | IL-2: interleukin-2, unmodified reference for STAT5 phosphorylation signal and binding affinities |  |  |  |  |  | around 24 hours
